Results: patent US8426202B2, “Cell culture medium” (Cellca GmbH, priority 2005, dated 2013)
Where “and” joins values, the source holds several entries; their conditions need not be identical. Equal values may be shown once. Read-outs that look alike come from different tables or passages of the source.

Tests used:
[1] = test system: CHO cell line that expresses an antibody; conditions: fed-batch, basal medium 4 mM glutamine, feed with 3 g/l Ala-Gln and 3 g/l Gly-Gln, substance 0.5-1 g/l
[2] = test system: CHO cell line that expresses an antibody; conditions: fed-batch, day 5; glutamine-free basal and feed media; substance 0.5-1 g/l
[3] = test system: CHO cell line that expresses an antibody; assay: Fed-batch experiment with the substances according to the invention (Example 2, Table 2); type: cell-based, Chinese hamster
Description: Feed took place at regular intervals.

O=C(O)CCC(=O)C(=O)O [α-Keto-glutarate]
Total Cell Density TCD ([1]; day 0): 1.1 E5/ml
Viable Cell Density (VCD) ([1]; day 0): 1.0 E5/ml
Total Cell Density TCD ([1]; day 3): 7.6 E5/ml
Viable Cell Density (VCD) ([1]; day 3): 7.1 E5/ml
Total Cell Density TCD ([1]; day 5): 40.1 E5/ml
Viable Cell Density (VCD) ([1]; day 5): 38.5 E5/ml
Total Cell Density TCD ([1]; day 7): 36.0 E5/ml
Viable Cell Density (VCD) ([1]; day 7): 30.2 E5/ml
Total Cell Density TCD ([1]; day 9): 31.2 E5/ml
Viable Cell Density (VCD) ([1]; day 9): 21.0 E5/ml
VCD [2]: 104 % of control
Total Cell Density TCD ([3]; day 0, fed-batch): 1.5 E5/ml
Viable Cell Density (VCD) ([3]; day 0, fed-batch): 1.37 E5/ml
Total Cell Density TCD ([3]; day 2, fed-batch): 3.9 E5/ml and 3.4 E5/ml
Viable Cell Density (VCD) ([3]; day 2, fed-batch): 3.8 E5/ml and 3.3 E5/ml
Total Cell Density TCD ([3]; day 5, fed-batch): 11.8 E5/ml
Viable Cell Density (VCD) ([3]; day 5, fed-batch): 11.4 E5/ml
Total Cell Density TCD ([3]; day 8, fed-batch): 49.4 E5/ml
Viable Cell Density (VCD) ([3]; day 8, fed-batch): 46.9 E5/ml
